The values that follow are results of earlier work, collected in article PMC7406630, “A new ^68Ga-labeled somatostatin analog containing two iodo-amino acids for dual somatostatin receptor subtype 2 and 5 targeting” (EJNMMI Research, 2020).

The chains behind the UniProt entries cited, without tags or fusion partners. Where a name states a change or a piece, a line headed by the entry shows the natural chain unless it says otherwise.
UniProt P30874: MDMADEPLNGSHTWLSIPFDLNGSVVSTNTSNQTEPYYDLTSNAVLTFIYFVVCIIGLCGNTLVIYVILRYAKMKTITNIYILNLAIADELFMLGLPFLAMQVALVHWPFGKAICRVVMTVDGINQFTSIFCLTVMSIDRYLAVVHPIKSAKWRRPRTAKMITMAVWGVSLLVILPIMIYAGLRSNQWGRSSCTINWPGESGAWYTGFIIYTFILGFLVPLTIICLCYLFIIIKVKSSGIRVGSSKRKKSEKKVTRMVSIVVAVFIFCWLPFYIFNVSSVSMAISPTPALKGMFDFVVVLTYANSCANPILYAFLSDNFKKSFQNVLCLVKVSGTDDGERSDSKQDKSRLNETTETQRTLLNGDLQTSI

The term EC50 denotes the concentration needed to bring the measured effect to its halfway point.

The target in the data set is T1, human SST2 (Homo sapiens, UniProt P30874).
T1 construct: expressed in transfected cells; host or cells: HEK293 (HEK-SST2)
The arrangement: method as in PMID 29523357. Particulars: cAMP, HEK-SST2 cells; read-out: SST2 EC50, nM (95% CI); cited from earlier work.

As to Octreotide, the EC50 is 0.21 nM.
For the substance Somatostatin-14, the EC50 is 0.23 nM.
